Reference: ChEMBL document CHEMBL1125778, “Development of a small RGD peptide fibrinogen receptor antagonist with potent antiaggregatory activity in vitro” (J Med Chem, 1991)

Chains of the proteins cited; added tags and fusions are not shown. Chains listed by the source or under a name are the forms on record and can include a tag or linker.
Integrin alpha-IIb/beta-3 (Canis familiaris), as listed by the source: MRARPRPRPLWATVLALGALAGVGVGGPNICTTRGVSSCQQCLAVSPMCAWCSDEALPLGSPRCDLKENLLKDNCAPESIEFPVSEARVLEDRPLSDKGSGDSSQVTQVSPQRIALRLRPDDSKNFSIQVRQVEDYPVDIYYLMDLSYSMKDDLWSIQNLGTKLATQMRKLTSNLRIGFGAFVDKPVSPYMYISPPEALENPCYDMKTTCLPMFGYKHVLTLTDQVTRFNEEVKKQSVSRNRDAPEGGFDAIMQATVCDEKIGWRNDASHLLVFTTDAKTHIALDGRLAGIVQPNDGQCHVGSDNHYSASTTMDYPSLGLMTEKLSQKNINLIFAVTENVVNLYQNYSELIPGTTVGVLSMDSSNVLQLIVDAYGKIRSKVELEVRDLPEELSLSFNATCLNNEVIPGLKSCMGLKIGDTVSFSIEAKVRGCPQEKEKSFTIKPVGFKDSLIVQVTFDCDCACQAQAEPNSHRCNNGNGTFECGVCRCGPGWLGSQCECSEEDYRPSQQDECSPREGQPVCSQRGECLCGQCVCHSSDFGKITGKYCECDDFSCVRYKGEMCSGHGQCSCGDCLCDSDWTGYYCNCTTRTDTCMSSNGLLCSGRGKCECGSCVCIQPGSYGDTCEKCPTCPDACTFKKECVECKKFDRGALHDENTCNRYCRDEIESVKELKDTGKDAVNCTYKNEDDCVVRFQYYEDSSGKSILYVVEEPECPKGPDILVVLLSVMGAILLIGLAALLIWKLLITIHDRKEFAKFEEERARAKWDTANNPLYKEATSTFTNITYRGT

What follows are compounds tested on Integrin alpha-IIb/beta-3 (Canis familiaris) (assay: Inhibition of canine platelet-rich plasma induced by ADP). Details: Canis lupus familiaris, concentration not given here.
Set-up: concentration or dose not given beside the values

inhibition [%] | Compound
27 | CC(=O)N[C@@H]1CSSC(C)(C)[C@H](C(N)=O)NC(=O)[C@@H](CC(=O)O)NC(=O)CNC(=O)[C@@H](CCCCN)NC1=O
100 | CC(=O)N[C@@H]1CSSC(C)(C)[C@H](C(N)=O)NC(=O)[C@H](CC(=O)O)NC(=O)CNC(=O)[C@@H](CCCN=C(N)N)NC1=O
56 | CC(=O)N[C@@H]1CSSC(C)(C)[C@H](C(N)=O)NC(=O)[C@@H](CC(=O)O)NC(=O)CNC(=O)[C@@H](CCCCN=C(N)N)NC1=O

More lines, now with the values behind:

Compound | inhibition [%]
CC(=O)N[C@@H]1CSSC(C)(C)[C@H](C(N)=O)NC(=O)[C@H](CC(=O)O)NC(=O)CNC(=O)[C@H](CCCN=C(N)N)NC1=O | 100
CC(=O)N[C@@H]1CSSC(C)(C)[C@H](C(N)=O)NC(=O)[C@@H](CC(=O)O)NC(=O)CNC(=O)[C@@H](CCCN=C(N)N)N(C)C1=O | 100
